Test results as given in article PMC3684443 (ACS chemical biology, 2012).

Assays:
[1] = tested on: HNSCC cell line 1483 xenograft tumors; experiment: Antitumor effect in HNSCC xenograft model, tumor volume; format: in vivo, Athymic nude mice; settings: 2 weeks treatment, comparison between the three treated groups
[2] = tested on: HNSCC; settings: HNSCC patients; cited from earlier work

## cetuximab: FDA-approved EGFR-specific antibody that binds the extracellular ligand-binding domain of EGFR
[1]
  Response among erlotinib, cetuximab and EGFRAS-GPNA groups: no significant difference
[2]
  Clinical response rates: 10−13%
